The test has as its target Human immunodeficiency virus type 1 protease (Human immunodeficiency virus 1, UniProt Q72874). The test is described as follows: Binding affinity against HIV -1 protease.

What is called Ki is the dissociation constant of the complex between target and ligand, obtained from inhibition or displacement. The low end stands for a stronger hold on the target, the high end for a looser hold on the target. In turn, `C[C@H](N)C(=O)N[C@@H](C)C(=O)N[C@@H](Cc1ccccc1)[C@@H](O)CCC(=O)NC(c1ccccc1)c1ccccc1` gave a Ki of 1670 nM.

Values taken from ChEMBL document CHEMBL1127634, “Calculation of relative differences in the binding free energies of HIV1 protease inhibitors: a thermodynamic cycle perturbation approach” (J Med Chem, 1994).
